For orientation: pKi means −log10 of the Ki, conventionally taken in molar units.

The experiment deals with soluble fraction of uPAR comprising amino acids 1-277. As to the kind of experiment: fluorescence polarisation.

pKi: −log10 of the molar value.

Substance unlabeled GFD peptide gave a pKi of 6.66.

The values are drawn from PMC3220747.
